Target: chemokine receptors on THP-1 cells
Assay: binding to THP-1 cells

binding sites per cell (sites per cell): 15000
Substance: KQK (peptide)
